This passage reports Kd results from patent publication US5807671A (priority 1995, dated 1998).

Sequences of proteins named here, by UniProt entry; tags and fusion partners are left off. Residues count along the entry.
UniProt P22303, 32-614: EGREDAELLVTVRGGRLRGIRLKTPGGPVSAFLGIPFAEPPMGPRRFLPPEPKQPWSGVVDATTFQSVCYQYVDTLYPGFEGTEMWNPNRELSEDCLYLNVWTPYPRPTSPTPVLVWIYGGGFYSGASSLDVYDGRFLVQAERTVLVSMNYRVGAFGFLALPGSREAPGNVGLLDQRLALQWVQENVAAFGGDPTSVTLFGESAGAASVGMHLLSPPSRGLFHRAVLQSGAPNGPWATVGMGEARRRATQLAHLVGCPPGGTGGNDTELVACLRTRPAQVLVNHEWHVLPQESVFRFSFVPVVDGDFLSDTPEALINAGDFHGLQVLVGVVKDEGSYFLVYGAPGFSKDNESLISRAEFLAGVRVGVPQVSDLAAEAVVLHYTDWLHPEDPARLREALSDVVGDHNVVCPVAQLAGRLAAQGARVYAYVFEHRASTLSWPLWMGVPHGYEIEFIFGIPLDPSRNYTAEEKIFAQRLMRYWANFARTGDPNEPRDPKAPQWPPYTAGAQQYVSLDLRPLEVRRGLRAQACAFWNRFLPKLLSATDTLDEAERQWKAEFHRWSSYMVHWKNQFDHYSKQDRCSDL

The Kd is the concentration at which binding is half-saturated.

Experiment [1] deals with diisopropylphosphoryl-AChE (E6) (Homo sapiens, UniProt P22303). As to the kind of experiment: biochemical.
Experiment [2] addresses diisopropylphosphoryl-AChE (E5) (Homo sapiens, UniProt P22303). Description: biochemical.

Turning to `C[n+]1ccccc1/C=N/O` [PAM, Pyridine-2-aldoxime methiodide], the Kd in experiment [1] worked out at 270 ± 40 µM; in experiment [2] it was 190 ± 70 µM.
